Target: Vasopressin V2 receptor (Rattus norvegicus) (UniProt Q00788)
Assay: Ex vivo receptor occupancy at V2R in isolated perfused Sprague-Dawley rat kidney assessed as dissociation half life at 0.1 uM incubated for 30 mins by LC-MS analysis
Assay type: functional, tissue-based

Protein sequences, listed by entry. Tags and fused reporters are not part of them.
UniProt Q00788, whole entry: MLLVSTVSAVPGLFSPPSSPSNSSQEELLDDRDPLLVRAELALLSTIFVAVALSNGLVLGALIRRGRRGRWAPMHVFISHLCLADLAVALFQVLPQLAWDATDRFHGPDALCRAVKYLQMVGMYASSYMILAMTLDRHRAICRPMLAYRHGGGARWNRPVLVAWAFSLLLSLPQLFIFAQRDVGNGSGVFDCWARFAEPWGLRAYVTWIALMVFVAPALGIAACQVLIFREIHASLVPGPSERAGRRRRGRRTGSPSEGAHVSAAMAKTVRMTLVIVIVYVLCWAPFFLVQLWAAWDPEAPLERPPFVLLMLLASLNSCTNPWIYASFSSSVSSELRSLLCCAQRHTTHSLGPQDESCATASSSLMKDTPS

T1/2: 56 min
Structure (SMILES): Cc1ccccc1C(=O)Nc1ccc(C(=O)N2CCCC(NCCCN3CCOCC3)c3cc(Cl)ccc32)c(C)c1 (stereo unspecified)

Source: ChEMBL document CHEMBL5154831 (J Med Chem, 2022)
